The term IC50 denotes the midpoint of a concentration-inhibition curve. Lower therefore signals inhibition by little substance.

Consider one molecule from paper PMC9246766 (Pharmaceutical research, 2022).

Each structure is given as a SMILES string.

This assay has as its target T1, OCT3 (Homo sapiens, UniProt O75751).
T1 sequence (O75751 1-556): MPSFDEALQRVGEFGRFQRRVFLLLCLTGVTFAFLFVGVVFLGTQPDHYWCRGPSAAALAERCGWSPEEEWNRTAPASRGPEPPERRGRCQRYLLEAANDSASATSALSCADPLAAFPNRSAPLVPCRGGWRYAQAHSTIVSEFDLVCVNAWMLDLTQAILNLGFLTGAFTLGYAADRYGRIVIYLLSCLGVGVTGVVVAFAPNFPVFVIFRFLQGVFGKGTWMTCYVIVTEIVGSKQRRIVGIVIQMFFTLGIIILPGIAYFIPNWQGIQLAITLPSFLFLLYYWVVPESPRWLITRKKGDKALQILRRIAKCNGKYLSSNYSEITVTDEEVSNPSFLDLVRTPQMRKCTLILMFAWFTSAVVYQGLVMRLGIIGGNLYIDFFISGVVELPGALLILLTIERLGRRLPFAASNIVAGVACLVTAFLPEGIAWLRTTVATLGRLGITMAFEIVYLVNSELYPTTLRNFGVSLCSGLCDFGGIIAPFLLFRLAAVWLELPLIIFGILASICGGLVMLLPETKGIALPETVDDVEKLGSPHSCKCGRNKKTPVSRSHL
As to the kind of experiment: IC50 determination against OCT3-mediated ASP+ uptake in HEK-293 cells overexpressing OCT3. The assay is classed as cell-based.

Molecule `Cc1nc2n(c(=O)c1CCN1CCC(c3noc4cc(F)ccc34)CC1)CCCC2` [risperidone] had an IC50 of 1900 nM. This lies in the single-digit micromolar range.
